In patent US6593140B1, “Animal cell culture” (Lonza Group, AG, priority 1992, dated 2003):

System: mouse hybridoma cell line
Settings: reciprocal shaking platform 120 rpm, 3 days; presence or absence of transferrin; FIG. 2B
Experimental: A mouse hybridoma cell line, previously subcultured in serum free medium containing human transferrin, was centrifuged and resuspended at 1.5×10^5 cells/ml in either transferrin-free or transferrin-containing serum-free medium. […] The flasks were gassed in 5% CO2—95% air atmosphere, sealed and incubated either static or on an orbital reciprocal shaking platform (120 rpm) at 36.5° C. for 3 days. Samples were then removed and cell concentration was determined by haemocytometry.

## ferric ammonium citrate
  toxic concentration in agitated culture: > 1 mg/L
